Biological target: cGMP-specific PDE-5 (UniProt O76074)
Test: PDE-5 inhibition, batch method or scintillation proximity assay
Type: biochemical, human
Conditions: activity against PDE-5, representative preferred compounds

| Structure (SMILES) | IC50 [nM] | IC50 (tested form: HCl) [nM] |
| --- | --- | --- |
| Cc1nn(CCOCC(F)(F)F)c2c(Nc3ccncn3)nc(N3CCN[C@H](C)C3)nc12 | 0.2 |  |
| Cc1cc(Nc2nc(N(C)C3CCN(C)CC3)nc3c(C)nn(CCOCC(F)(F)F)c23)ncn1 |  | 0.47 |

From patent US7262192B2, “Substituted pyrazolo[4,3-d]pyrimidines and their use as PDE-5 inhibitors” (Pfizer Inc., priority 2003, dated 2007)
